US20030224978A1, “Compounds and methods for modulating apoptosis” (McGill University, priority 1996, published 2003)

Columns and labels:
[1] = system: bovine pulmonary artery endothelial cells; test: Disruption of bovine endothelial cell adhesion; assay type: cell-based; conditions: 500 μg/ml, 30 minutes
Procedure: For use within one such assay, bovine pulmonary artery endothelial cells may be harvested by sterile ablation and digestion in 0.1% collagenase (type II; Worthington Enzymes, Freehold, N.J.). Cells may be maintained in Dulbecco's minimum essential medium supplemented with 10% fetal calf serum and 1% antibiotic-antimycotic at 37° C. in 7% CO2 in air. Cultures may be passaged weekly in trypsin-EDTA and seeded onto tissue culture plastic at 20,000 cells/cm^2. Endothelial cultures may be used at 1 week in culture, which is approximately 3 days after culture confluency is established. The cells may be seeded onto coverslips and treated (e.g., for 30 minutes) with modulating agent or a control compound at, for example, 500 μg/ml and then fixed with 1% paraformaldehyde. As noted above, disruption of cell adhesion may be determined visually within 24 hours, by observing retraction of the cells from one another. This assay evaluates the effect of a modulating agent on N-cadherin mediated cell adhesion.
Bovine pulmonary artery endothelial cells were harvested by sterile ablation and digestion in 0.1% collagenase (type II; Worthington Enzymes, Freehold, N.J.). Cells were maintained in Dulbecco's […] essential medium (Clonetics, San Diego, Calif.) supplemented with 10% fetal calf serum (Atlantic Biologicals, Nor cross, Ga.) and 1% antibiotic-antimycotic at 37° C. in 7% CO2 in air. […]

[2] = in vitro; assay type: cell-based; conditions: human
Procedure: (§1) N-Ac-CHAVC-NH2 (SEQ ID NO:10) and the control peptide N-Ac-CHGVC-NH2 (SEQ ID NO:20) were evaluated for possible cytotoxic effects on human microvascular endothelial (HMVEC; Clonetics), human umbilical vein endothelial (HUVEC; ATCC #CRL-1730), IAFp2 (human fibroblast cell line; Institute Armand-Frapier, Montreal, Quebec), WI-38 (human fibroblast cell line; ATCC #CCL-75), MDA-MB231 (human breast cancer cell line; ATCC #HTB-26), and PC-3 (human prostate cancer cell line; ATCC #CRL-1435) cells utilizing the MTT assay (Plumb et al., Cancer Res. 49:4435-4440, 1989). Neither of the peptides was cytotoxic at concentrations up to and including 100 μM. Similarly, neither of the peptides was capable of inhibiting the proliferation of the above cell lines at concentrations up to 100 μM, as judged by ^3H-thymidine incorporation assays.

[3] = in vitro; assay type: cell-based; conditions: human; remark: listed apart in the source
Procedure: as §1

[4] = Stability of cyclic peptide in mouse whole blood; assay type: in vitro ADME; conditions: 37° C.
Procedure: 50 μl of a stock solution containing 12.5 μg/ml H-CHAVC-NH2 (SEQ ID NO:10) was added to mouse whole blood and incubated at 37° C. Aliquots were removed at intervals up to 240 minutes, precipitated with acetonitrile, centrifuged and analyzed by HPLC.

[5] = in vitro; assay type: cell-based; conditions: human; remark: listed apart in the source
Procedure: as §1

[6] = in vitro; assay type: cell-based; conditions: human; remark: listed apart in the source
Procedure: as §1

[7] = system: angiogenesis in chick embryonic chorioallantoic membranes; test: Chick chorioallantoic membrane angiogenesis assay; assay type: in vivo; conditions: 24 hours
Procedure: The chick chorioallantoic membrane assay was used to assess the effects of cyclic peptides on angiogenesis (Iruela-Arispe et al., Molecular Biology of the Cell 6:327-343, 1995). Cyclic peptides were embedded in a mesh composed of vitrogen at concentrations of 3, 17, and 33 μg/mesh. The meshes were then applied to 12-day-old chick embryonic chorioallantoic membranes. After 24 hours, the effects of the peptides on angiogenesis were assessed by computer assisted morphometric analysis.
For each concentration of cyclic peptide, the percent inhibition of angiogenesis (relative to the level of angiogenesis in the absence of cyclic peptide) is provided. Assays were performed in the presence (+) or absence (−) of […] VEGF. For example, the cyclic peptide N-Ac-CHAVC-NH2 (SEQ ID NO:10) inhibited angiogenesis by 46%, 51%, and 51% at concentrations of 3, 17, and 33 μg/mesh, respectively.

[8] = Chronic toxicity study in mice; assay type: in vivo; conditions: after the four day recovery period
Procedure: Varying amounts of H-CHAVC-NH2 (SEQ ID NO:10; 2 mg/kg, 20 mg/kg and 125 mg/kg) were injected into mice intraperitoneally every day for three days.

[9] = target: T1, chick N-cadherin (Gallus gallus, UniProt P10288); test: N-cadherin dependent neurite outgrowth of rat cerebellar neurons on N-cadherin expressing 3T3 cells (Example 14); assay type: cell-based; conditions: NIH3T3; 250 μg/mL, 16-18 hours
T1 construct: expressed in transfected cells; host or cells: 3T3 fibroblasts
T1 sequence (P10288 165-912): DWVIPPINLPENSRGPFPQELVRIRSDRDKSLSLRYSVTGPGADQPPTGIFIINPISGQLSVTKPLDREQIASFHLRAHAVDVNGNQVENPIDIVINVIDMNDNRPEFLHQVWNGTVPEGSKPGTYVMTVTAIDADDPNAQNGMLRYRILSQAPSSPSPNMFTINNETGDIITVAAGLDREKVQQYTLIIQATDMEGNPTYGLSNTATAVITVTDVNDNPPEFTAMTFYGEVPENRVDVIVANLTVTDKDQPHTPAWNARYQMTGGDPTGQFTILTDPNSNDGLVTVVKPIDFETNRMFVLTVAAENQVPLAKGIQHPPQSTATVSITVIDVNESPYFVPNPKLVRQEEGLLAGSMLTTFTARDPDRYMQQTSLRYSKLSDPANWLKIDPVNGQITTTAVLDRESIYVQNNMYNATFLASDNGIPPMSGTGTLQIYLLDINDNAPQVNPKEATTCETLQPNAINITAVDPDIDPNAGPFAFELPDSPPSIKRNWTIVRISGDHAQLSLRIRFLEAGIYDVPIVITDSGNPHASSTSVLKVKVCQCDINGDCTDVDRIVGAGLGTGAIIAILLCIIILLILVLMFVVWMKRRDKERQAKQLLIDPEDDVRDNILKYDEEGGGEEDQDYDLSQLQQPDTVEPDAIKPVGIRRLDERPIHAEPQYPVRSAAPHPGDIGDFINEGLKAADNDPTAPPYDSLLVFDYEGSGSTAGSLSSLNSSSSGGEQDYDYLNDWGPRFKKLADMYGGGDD
Procedure: Cell culture and neurite outgrowth assays. Co-cultures of cerebellar neurons on monolayers of control 3T3 cells and monolayers of transfected 3T3 cells that express physiological levels of chick N-cadherin or human L1 were established as previously described (Williams et al., Neuron 13:583-594, 1994). In brief, 80,000 3T3 cells (control and transfected) were plated into individual chambers of an eight-chamber tissue culture slide coated with polylysine and fibronectin and cultured in DMEM/10% FCS. After 24 hours, when confluent monolayers had formed, the medium was removed and 3000 cerebellar neurons isolated from post-natal day 2-3 rats were plated into each well in SATO media (Doherty et al., Nature 343:464-466, 1990) supplemented with 2% FCS. All of the test peptides were added immediately before the neurons as a 2×stock prepared in SATO/2% FCS. […] The mean length of the longest neurite per cell was measured for 150-200 neurons sampled in replicate cultures as previously described (Williams et al., Neuron 13:583-594, 1994). […] Dose-response curves were evaluated and the EC50 values determined.
Effects of cyclic HAV peptides on N-cadherin function. […] The cells were then fixed and the length of the longest neurite on 150-200 neurons was determined by standard assay, as described above. […]

With `CC(C)[C@@H]1NC(=O)[C@H](C)NC(=O)[C@H](Cc2c[nH]cn2)NC(=O)[C@@H](N)CSSC[C@@H](C(N)=O)NC1=O` [H-CHAVC-NH2] the “effect on endothelial cell monolayer / morphology” value [1] was “had no effect on endothelial cell morphology”, the IC50 [2] was over 100 µM and the IC50 [3] was over 100 µM. The remaining at 10 min ([4]; 10 min) was 98.9%, the remaining at 20 min ([4]; 20 min) was 86.7% and the remaining at 0.5 h ([4]; 30 min) was 113%. The remaining at 0.75 h ([4]; 45 min) was 110%, the remaining at 1 h ([4]; 60 min) was 95.5% and the remaining at 1.5 h ([4]; 90 min) was 111%. The remaining at 2 h ([4]; 120 min) was 68.1%, the remaining at 4 h ([4]; 240 min) was 78.9% and the IC50 [5] was over 100 µM. The IC50 [6] was over 100 µM, the “percent inhibition of angiogenesis” value ([7]; 3 μg/mesh, absence (−) of 0.01 mM VEGF) was 11% and the “percent inhibition of angiogenesis” value ([7]; 3 μg/mesh, presence (+) of 0.01 mM VEGF) was 27%. The “percent inhibition of angiogenesis” value ([7]; 17 μg/mesh, absence (−) of 0.01 mM VEGF) was 13%, the “percent inhibition of angiogenesis” value ([7]; 17 μg/mesh, presence (+) of 0.01 mM VEGF) was 34% and the “percent inhibition of angiogenesis” value ([7]; 33 μg/mesh, absence (−) of 0.01 mM VEGF) was 17%. The “percent inhibition of angiogenesis” value ([7]; 33 μg/mesh, presence (+) of 0.01 mM VEGF) was 35%, the autopsy findings [8] was “no abnormalities were observed” and the inhibition at 250 µg/mL [9] was 1.7 ± 1.1%.

For `CC(C)[C@@H]1NC(=O)CNC(=O)[C@H](Cc2c[nH]cn2)NC(=O)[C@@H](N)CSSC[C@@H](C(N)=O)NC1=O` [H-CHGVC-NH2, reference compound], the IC50 [2] was over 100 µM, the IC50 [3] was over 100 µM and the IC50 [5] was over 100 µM. It also gave an IC50 [6] of over 100 µM and an inhibition at 250 µg/mL [9] of 7.8 ± 7.1%.
